Test results: patent US20130012432A1, “Peptides for Treatment of Obesity” (Novo Nordisk A/S, priority 2010, published 2013)

Amino acid sequences for entries named in this document (tags omitted). Residues count along the entry.
UniProt P43220, 24-463: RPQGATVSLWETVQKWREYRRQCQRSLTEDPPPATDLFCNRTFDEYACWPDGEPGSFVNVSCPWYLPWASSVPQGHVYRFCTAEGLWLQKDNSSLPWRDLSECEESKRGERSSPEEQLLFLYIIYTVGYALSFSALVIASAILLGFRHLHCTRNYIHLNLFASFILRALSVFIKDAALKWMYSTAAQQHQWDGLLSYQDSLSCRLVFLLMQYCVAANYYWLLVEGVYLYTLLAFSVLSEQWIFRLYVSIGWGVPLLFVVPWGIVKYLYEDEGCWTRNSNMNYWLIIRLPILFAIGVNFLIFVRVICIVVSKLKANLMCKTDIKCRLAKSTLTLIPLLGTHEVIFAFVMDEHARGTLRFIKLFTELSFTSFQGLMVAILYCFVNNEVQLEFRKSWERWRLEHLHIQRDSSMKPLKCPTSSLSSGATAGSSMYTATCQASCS

Molecular target: T1, human GLP-1 receptor (Homo sapiens, UniProt P43220)
T1 construct: expressed in transfected cells; purified plasma membranes
Assay: Assay (XI) GLP-1 activity assay, stimulation of cAMP formation
Assay type: biochemical
Conditions: membranes of BHK467-12A cells expressing human GLP-1 receptor
Excerpt: The capture of cAMP is achieved by using a specific antibody conjugated to acceptor beads.

EC50 relative to that of compound G1: about 5 times
Substance: N-epsilon37-[2-(2-{2-[2-(2-{2-[(S)-4-Carboxy-4-({trans-4-[(19-carboxynonadecanoylamino)methyl]cyclohexanecarbonyl}amino)butyrylamino]ethoxy}ethoxy)acetylamino]ethoxy}ethoxy)acetyl][DesaminoHis7,Glu22,Arg26,Arg34,Lys37]GLP-1-(7-37) [Example G2]
